# Apparent affinities of Ab-14 variants for a coronavirus HR2 peptide

Antigen: PDVDLGDISGINAS, a 14-residue peptide of the SARS-CoV-2 spike HR2 region.

Ab-14 is the parent antibody, in scFv form: VH, then the linker GGGGSGGGGSGGGGS, then VL. The heavy chain is unchanged in all variants.
VH: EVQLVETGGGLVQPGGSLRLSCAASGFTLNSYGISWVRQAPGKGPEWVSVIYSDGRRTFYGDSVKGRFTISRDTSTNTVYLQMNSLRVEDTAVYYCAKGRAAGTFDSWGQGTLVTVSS
VL: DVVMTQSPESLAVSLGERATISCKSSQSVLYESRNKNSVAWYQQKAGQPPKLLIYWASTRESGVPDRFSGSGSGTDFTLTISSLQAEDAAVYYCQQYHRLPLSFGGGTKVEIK

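Phage display of a naive human antibody library on the peptide gave the parent. Variants in AAYL50 differ from the parent at up to three CDR positions; double and triple changes were sampled at random. The assay is AlphaSeq: two haploid yeast populations carry antibody and antigen on their surface. Binding brings cells together so that they mate, and sequencing counts the barcode pairs among the diploids. Read counts were normalised to the haploid input and turned into Kd by a linear fit to BCL2-family pairs of known affinity, for each replicate. There are three technical replicates.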

Positions count from residue 1 of the parent VL; K24E puts E in place of K. Scale: log10 of Kd in nM, estimated from mating counts; low values are strong binders. Averages over replicates are reported, and they cover detected replicates only. A pair that was not seen in any replicate is written "nd"; this usually means weak binding, but a binder can also be missed.

mean log10 Kd (nM),seen in,control signals,changes
2.37,3/3,2/9,K24E K36C L102H
2.34,1/3,2/9,A57F Q96E L100Y
4.42,1/3,3/9,R60I S62G Q95T
2.43,3/3,2/9,S25Q R34C Q96L
-0.03,3/3,6/9,K36H W56D R99G
5.03,1/3,1/9,V29S S33H P101Y
1.27,3/3,0/9,S26V S33Q T59C
1.15,3/3,7/9,K24R S33Q L100W
0.51,3/3,3/9,S25R S28R S33W
1.80,3/3,5/9,Y31S N35K W56M
3.66,3/3,3/9,S25E R60P S103Q
1.24,3/3,0/9,R34I K36Y S62Q
3.30,2/3,1/9,N37L R60L L102Q
1.62,3/3,1/9,S25H S28G N37R
4.24,1/3,0/9,N35P V39F R60T
4.18,2/3,4/9,K36N T59A R60W
0.14,3/3,4/9,W56E S62N H98V
4.47,1/3,3/9,N35D W56V L100Y
1.25,3/3,2/9,K36L A57M L100Q
nd,0/3,2/9,A57T R60L L102E
nd,0/3,0/9,Q27N S33D
2.24,3/3,0/9,S33N S58E P101V
1.76,3/3,2/9,S25T S33F L100N
3.58,2/3,2/9,K24P L100P
nd,0/3,1/9,S33N R60W
1.82,3/3,0/9,S25R E32L R34D
1.55,3/3,0/9,S33F S62N H98D
5.42,1/3,3/9,Q27N A57V L100D
1.51,3/3,1/9,S28R Q95D H98W
4.44,1/3,2/9,S25E S33M V39Q
3.53,1/3,1/9,A57H Y97D P101V
nd,0/3,1/9,A40V T59L Y97D
1.72,3/3,0/9,E32M Y97D L102Y
nd,0/3,0/9,Y31G A40E
3.41,1/3,0/9,Q27K S58V E61G
1.78,3/3,0/9,Y31C L100M
0.78,3/3,0/9,N35E P101C
1.31,3/3,0/9,S25R R34H N35L
nd,0/3,0/9,N35Y W56S R60L
nd,0/3,1/9,Y31E A57H Q95Y
1.19,3/3,2/9,R34A S38D L100T
1.35,3/3,1/9,S26Q T59Q H98K
nd,0/3,0/9,V29D H98M R99K
1.57,3/3,1/9,Q27C W56L
nd,0/3,1/9,S26D S38I S103C
nd,0/3,0/9,S28M A40T L100F
nd,0/3,0/9,S38V R60N L102T
1.58,3/3,1/9,R34A A57M
4.03,1/3,2/9,S28C K36G N37K
1.60,3/3,3/9,N37P S58E
3.53,3/3,1/9,K24W Q27C Y97L
3.27,3/3,3/9,S25R R34V P101I
1.96,3/3,3/9,S26Q S33W S103I
5.20,1/3,1/9,V29P Y31L W56M
1.11,3/3,3/9,Y31S T59I E61H
nd,0/3,3/9,Q95F P101S

9 of these entries, quoted again:

changes,mean log10 Kd (nM),seen in,control signals
W56E S62N H98V,0.14,3/3,4/9
S25E S33M V39Q,4.44,1/3,2/9
Y31S N35K W56M,1.80,3/3,5/9
Q27C W56L,1.57,3/3,1/9
V29P Y31L W56M,5.20,1/3,1/9
S26Q S33W S103I,1.96,3/3,3/9
A40V T59L Y97D,nd,0/3,1/9
R34A S38D L100T,1.19,3/3,2/9
S26V S33Q T59C,1.27,3/3,0/9

Empty control strains, which show no peptide, gave a signal in 18% of pairings with library AAYL50; the median was 4.19 and 95% of these signals were weaker than 2.99. No background was subtracted. Also given: how often the same scFv was detected with the empty control strains. Parent in this assay: reference entry 0.65, copy in this library 1.68.

Reference: Engelhart et al. 2022, doi:10.1038/s41597-022-01779-4. File: FLAb, binding data.